For two molecules, IC50 results are on record in article PMC12009711.

Amino acid sequences for entries named in this document (tags omitted).
UniProt P50750, whole entry: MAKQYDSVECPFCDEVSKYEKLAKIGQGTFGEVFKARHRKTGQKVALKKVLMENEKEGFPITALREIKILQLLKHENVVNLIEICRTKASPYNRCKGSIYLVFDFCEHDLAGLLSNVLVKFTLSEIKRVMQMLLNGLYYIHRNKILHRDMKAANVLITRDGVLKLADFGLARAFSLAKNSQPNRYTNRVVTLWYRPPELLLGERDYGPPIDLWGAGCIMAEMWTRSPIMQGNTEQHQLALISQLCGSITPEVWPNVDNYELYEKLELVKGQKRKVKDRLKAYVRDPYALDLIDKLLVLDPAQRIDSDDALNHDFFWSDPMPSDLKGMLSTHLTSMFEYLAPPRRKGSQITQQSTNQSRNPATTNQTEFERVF
UniProt Q13535, whole entry: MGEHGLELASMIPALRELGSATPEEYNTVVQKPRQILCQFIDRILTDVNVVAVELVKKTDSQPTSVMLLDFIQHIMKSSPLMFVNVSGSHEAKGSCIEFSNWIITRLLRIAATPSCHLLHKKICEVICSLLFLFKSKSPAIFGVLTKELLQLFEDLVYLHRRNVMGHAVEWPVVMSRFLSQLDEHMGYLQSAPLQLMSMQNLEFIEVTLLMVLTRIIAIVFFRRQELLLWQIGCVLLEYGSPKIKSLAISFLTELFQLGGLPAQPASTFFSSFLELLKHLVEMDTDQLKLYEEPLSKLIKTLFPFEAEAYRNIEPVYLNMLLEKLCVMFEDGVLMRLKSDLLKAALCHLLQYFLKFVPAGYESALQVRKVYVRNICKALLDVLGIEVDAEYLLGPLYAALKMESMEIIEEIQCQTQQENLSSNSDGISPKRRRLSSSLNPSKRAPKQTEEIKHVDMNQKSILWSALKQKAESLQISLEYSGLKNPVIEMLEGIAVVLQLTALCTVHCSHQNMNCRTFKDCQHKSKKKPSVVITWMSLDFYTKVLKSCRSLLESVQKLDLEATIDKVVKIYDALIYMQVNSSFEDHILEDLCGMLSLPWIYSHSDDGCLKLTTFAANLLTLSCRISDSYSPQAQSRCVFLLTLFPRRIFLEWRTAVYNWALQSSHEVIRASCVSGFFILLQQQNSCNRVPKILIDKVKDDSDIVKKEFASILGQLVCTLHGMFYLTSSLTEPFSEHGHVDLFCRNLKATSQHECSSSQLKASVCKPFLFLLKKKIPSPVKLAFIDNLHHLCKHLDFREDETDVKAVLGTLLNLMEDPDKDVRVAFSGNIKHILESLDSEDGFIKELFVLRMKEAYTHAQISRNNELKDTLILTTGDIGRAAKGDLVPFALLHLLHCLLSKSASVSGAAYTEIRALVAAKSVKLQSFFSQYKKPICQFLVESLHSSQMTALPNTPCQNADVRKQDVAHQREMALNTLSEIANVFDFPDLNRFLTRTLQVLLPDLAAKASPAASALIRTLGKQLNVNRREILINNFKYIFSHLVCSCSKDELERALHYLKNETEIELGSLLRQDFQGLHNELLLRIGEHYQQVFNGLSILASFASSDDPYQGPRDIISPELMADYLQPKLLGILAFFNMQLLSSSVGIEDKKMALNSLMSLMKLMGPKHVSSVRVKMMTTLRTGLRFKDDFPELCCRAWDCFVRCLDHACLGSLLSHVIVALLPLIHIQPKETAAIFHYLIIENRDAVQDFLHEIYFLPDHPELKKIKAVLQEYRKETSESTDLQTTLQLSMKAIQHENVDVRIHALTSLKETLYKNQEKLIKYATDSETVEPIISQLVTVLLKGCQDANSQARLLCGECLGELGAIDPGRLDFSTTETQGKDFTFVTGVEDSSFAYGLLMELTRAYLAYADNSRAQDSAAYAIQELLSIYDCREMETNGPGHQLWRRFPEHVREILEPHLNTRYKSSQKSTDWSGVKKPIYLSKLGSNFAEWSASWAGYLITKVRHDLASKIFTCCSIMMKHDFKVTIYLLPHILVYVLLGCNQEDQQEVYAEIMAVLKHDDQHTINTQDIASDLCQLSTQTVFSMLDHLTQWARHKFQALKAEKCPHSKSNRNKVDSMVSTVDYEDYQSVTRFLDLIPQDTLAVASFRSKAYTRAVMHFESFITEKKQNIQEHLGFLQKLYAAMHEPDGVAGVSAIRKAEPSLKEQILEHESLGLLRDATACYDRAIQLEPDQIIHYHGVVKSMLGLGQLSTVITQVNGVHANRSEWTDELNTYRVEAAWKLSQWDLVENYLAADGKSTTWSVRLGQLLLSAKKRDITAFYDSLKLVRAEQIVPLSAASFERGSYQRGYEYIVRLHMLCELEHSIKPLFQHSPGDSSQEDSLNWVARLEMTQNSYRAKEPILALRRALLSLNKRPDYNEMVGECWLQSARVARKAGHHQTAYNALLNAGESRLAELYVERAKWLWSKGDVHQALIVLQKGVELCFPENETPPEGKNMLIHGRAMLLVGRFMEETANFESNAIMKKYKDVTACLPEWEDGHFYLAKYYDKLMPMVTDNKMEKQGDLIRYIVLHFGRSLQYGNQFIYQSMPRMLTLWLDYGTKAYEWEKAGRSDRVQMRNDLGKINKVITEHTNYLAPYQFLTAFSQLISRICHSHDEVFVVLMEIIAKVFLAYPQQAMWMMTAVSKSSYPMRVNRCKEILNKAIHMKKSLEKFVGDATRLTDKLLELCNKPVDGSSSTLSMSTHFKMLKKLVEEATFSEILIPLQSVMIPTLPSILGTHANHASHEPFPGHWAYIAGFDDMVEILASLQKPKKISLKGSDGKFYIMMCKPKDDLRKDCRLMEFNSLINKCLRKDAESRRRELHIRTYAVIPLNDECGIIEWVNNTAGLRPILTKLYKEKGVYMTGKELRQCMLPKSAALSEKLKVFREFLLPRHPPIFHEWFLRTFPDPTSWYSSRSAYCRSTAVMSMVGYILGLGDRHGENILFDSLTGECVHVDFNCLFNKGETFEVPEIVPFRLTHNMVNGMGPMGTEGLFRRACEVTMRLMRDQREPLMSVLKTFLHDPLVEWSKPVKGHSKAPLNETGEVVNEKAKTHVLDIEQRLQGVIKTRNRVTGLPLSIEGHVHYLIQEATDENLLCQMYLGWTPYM

Experiment [1] addresses cyclin-dependent kinase 9 (CDK9) (Homo sapiens, UniProt P50750). Description: in vitro kinase assay, dose-response.
Experiment [2] concerns the target ataxia telangiectasia and Rad3-related (ATR) (Homo sapiens, UniProt Q13535). Kind of experiment: in vitro kinase assay, dose-response.

For orientation: IC50 means the midpoint of a concentration-inhibition curve. The molecule `Fc1ccccc1-c1ccnc2[nH]c(-c3ccc(Oc4ccccc4)cc3)cc12` displayed an IC50 in experiment [1] of 117 nM.
For `CC(O)c1cccc(-c2cc(N3CCOCC3)cc(-c3ccnc4[nH]ccc34)n2)c1` (racemic), in experiment [2], the IC50 was 235 nM.
